Test results as given in patent publication US20180313827A1.

Protein sequences, listed by entry. Tags and fused reporters are not part of them. Chains listed by the source or under a name are the forms on record and can include a tag or linker.
UniProt Q9NQI0, other isoform, or with tags, fused parts or gaps limits assumed: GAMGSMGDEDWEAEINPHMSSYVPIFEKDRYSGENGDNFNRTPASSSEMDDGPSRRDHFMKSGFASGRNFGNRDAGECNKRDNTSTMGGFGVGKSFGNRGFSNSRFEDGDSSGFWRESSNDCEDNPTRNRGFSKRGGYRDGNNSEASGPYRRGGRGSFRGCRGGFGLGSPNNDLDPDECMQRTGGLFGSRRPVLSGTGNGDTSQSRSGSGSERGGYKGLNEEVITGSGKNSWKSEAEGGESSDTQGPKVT

Target: Ddx4_N1_1 (disordered N-terminus of Ddx4 protein, forming Ddx4N1 membraneless organelles / proteinaceous phase) (Homo sapiens (Human)) (UniProt Q9NQI0)
Test: confocal fluorescence microscopy, partitioning inside vs outside Ddx4N1 organelles in vitro; 17.3 µM, 175 mM NaCl

sHSP16.5_GFP (small heat shock protein Hsp16.5 fused to GFP, oligomer)
ΔGpart (partition free energy into Ddx4N1 organelles): -3.4 kJmol^-1
